Data: patent US20210253705A1, “METHODS AND AGENTS FOR TREATING ORGAN INJURY AND TRANSPLANT REJECTION” (The Regents of the University of California, priority 2020, published 2021)

Columns and labels:
[1] = system: BALB/c left lung allografts in C57BL/6 CCR4+/+ or CCR4−/− recipients; assay: Orthotopic left single lung transplant model; type: in vivo, mice; details: for lung allograft histopathology / allograft score AR / allograft score LB / allograft score pleural involvement / allograft score septal involvement: day 126; for allograft score AR / allograft score LB / allograft score pleural involvement / allograft score septal involvement: single pre-transplant low dose
Method: The orthotopic left single lung transplant model involved BALB/c left lungs transplanted into CCR4+/+ or CCR4−/− recipients in combinations with a single pre-operative dose of 0.1 mg CTLA4-Ig using a modification of the rodent left lung transplant. Donor BALB/c mice were anesthetized, intubated, ventilated and the left lung harvested and Teflon cuffs secured on the pulmonary artery, vein and bronchus then covered with soaked gauze pads on ice. The recipient mice are anesthetized, intubated, and ventilated. A 2-cm incision is made between 3-4 ribs on the left and a ¼-binder clip placed to expose the posterior hilum. Appropriate dissection of the hilum components included ligation and clamping after heparin delivery. A donor lung is inserted using the cuff technique via 10.0 ethilon suture. Incisions closure involved v6-0 surgical suture. During the procedure 1 cc of saline is administered subcutaneously and post-operatively the animals are placed in cages on warm water mattresses until recovered from anesthesia. Buprenorphine 0.1 mg/kg i.p. is given every 12 hours while monitoring for pain. Sutures are removed on post-operative day 7.
(§1) Histopathological Evaluation of Airway and Lung Transplants. Airway and lung graft tissues were fixed overnight in 4% paraformaldehyde, processed, paraffin-embedded, sectioned and stained with hematoxylin and eosin (H&E) or Elastin Trichrome. Three independent blinded reviewers calculated the degree of airway injury using a histological scoring system. All qualitative histological changes were evaluated and the total murine rejection score was calculated based on four pathological criteria: (a) airway lining epithelial loss, (b) deposition of extracellular matrix (ECM), (c) leukocyte infiltration, and (d) luminal fibro-obliteration due to granulation tissue formation and/or fibrosis. Each process was scored on a scale of 0-4 (0=normal, 1=mild, 2=moderate, 3=severe and 4=very severe) and added together for a total rejection score. Lung allograft rejection scores included acute rejection, lymphocytic bronchiolitis, pleural and septal rejection based on established criteria. Images were taken by Zeiss Axioskop 2 plus microscope and analyzed with AxioVision 4.2 imaging software. Images were taken as 5× to show whole pathology of tracheas and as 20× to amplify presence or absence of either epithelial cells and/or fibro-obliteration of the airway allograft lumen as well as different aspects of lung rejection and fibrosis.

[2] = system: BALB/c airway allografts in C57BL/6 recipients; assay: Heterotopic subcutaneous tracheal/airway transplantation model of allograft rejection; type: in vivo, mice; details: for airway allograft state (rejection/histology): 0.2 mg i.p. days 0, 2, 4, 6
Text: Murine Rejection Models. Heterotopic subcutaneous tracheal/airway transplantation model of alloreactivity involves the most stringent MHC class I- and II-disparate combination mismatch found in mice: BALB/c (H-2^d) tracheas transplanted subcutaneously into the upper backs of C57BL/6 (H-2^b) mice (allografts), and C57BL/6 tracheas transplanted subcutaneously into the backs of C57BL/6 mice (syngeneic control). Each mouse was subcutaneously transplanted with two tracheas. Small molecule CCR4 inhibitor or antagonist C 021 dihydrochloride (Cat #3581, Tocris Bio-Techne, Minneapolis, Minn., USA) was resuspended in sterile DMSO to 100 mg/ml and diluted further in 1×PBS to be administered as intraperitoneal (i.p.) injections at 50 mg/kg daily starting at day −1 prior to tracheal transplantation until day 14 when allografts were harvested for rejection analysis. For long-term experiments, CTLA4-Ig treatment (Bristol-Myers Squibb Company, Princeton, N.J., USA) was given as 0.2 mg i.p. injection on day 0 prior to tracheal transplantation and at days 2, 4 and 6 thereafter.
as §1
Adoptive transfer experiments. Total (CD90.2^+), CD4^+ or CD8^+ T cells were purified from spleens of naïve CCR4+/+ or CCR4−/− mice by positive selection using CD90.2, CD4(L3T4) or CD8(Ly-2) T cell Microbead Isolation Kits, respectively following manufacturing instructions. Briefly, animal spleens were surgically extracted and pushed through metal mesh to remove cells and washed twice in MACS rinsing buffer supplemented with 2% BSA. Total cells were counted using Crystal Violet and stained with MicroBeads and purified using positive selection by magnetic LS columns, washed and resuspended in sterile saline. After selection, 1×10^7 CD90.2, 5×10^6 of CD4^+ or 5×10^6 of CD8^+ live T cells (as determined by trypan blue staining) were injected i.v. into each mouse prior to subcutaneous transplantation with BALB/c tracheas. Allograft rejection was analyzed at day 21 by histopathological rejection scoring analysis as previously described. Additionally, we performed in vivo CD8^+ T cell depletion experiments. CCR4−/− mice were given an i.p. injection of either 0.25 mg of anti-CD8 antibody (clone 53-6.72) or control isotype antibody (clone 2A3) at day −1 of heterotopic BALB/c transplant and repeated at days 7 and 14 post-transplant with the addition of a transfer of 5×10^6 CD4^+ T cells injected immediately prior to heterotopic transplant procedure. Allografts were isolated at day 21 and evaluated for rejection.

[3] = CCR4+/+ recipients, 0.1 mg i.p. just prior to transplant, by day 126

“CTLA4-Ig: CTLA4-Ig treatment (Bristol-Myers Squibb Company)” was tested, and the “grade A rejection (AR) of lung allografts” value [1, 3] was ≥ 3, the “grade B rejection (B) of lung allografts” value [1, 3] was ≥ 3 and the lung allograft histopathology ([1]; CCR4+/+ recipients, 0.1 mg i.p. just prior to transplant) was “severe pleural and septal inflammation with and without fibrosis; also recorded: high grade vascular, airway and pleural rejection with fibrosis”. For the same substance, the “allograft score AR” value ([1]; CCR4+/+ recipients) was 100%, the “allograft score LB” value ([1]; CCR4+/+ recipients) was 100% and the “allograft score pleural involvement” value ([1]; CCR4+/+ recipients) was 60%. For the same substance, the “allograft score septal involvement” value ([1]; CCR4+/+ recipients) was 80%, the lung allograft histopathology ([1]; CCR4−/− recipients, 0.1 mg i.p. just prior to transplant) was “virtually normal lung allografts without any significant pathology; also recorded: virtually normal lung allograft” and the “allograft score AR” value ([1]; CCR4−/− recipients) was 0%. For the same substance, the “allograft score LB” value ([1]; CCR4−/− recipients) was 0%, the “allograft score pleural involvement” value ([1]; CCR4−/− recipients) was 0% and the “allograft score septal involvement” value ([1]; CCR4−/− recipients) was 0%. The “airway allograft state (rejection/histology)” value ([2]; CCR4+/+ recipients, by day 42) was “completely rejected and fibro-obliterated; also recorded: rejected and invaded by fibroblasts causing fibro-obliteration”, the “airway allograft state (rejection/histology)” value ([2]; CCR4+/+ recipients, day 126) was “rejected, without epithelium, and invaded by fibroblasts causing fibro-obliteration” and the “long-term airway allograft survival” value ([2]; CCR4 deficiency combined with low dose CTLA4-Ig at time of airway transplantation) was “over 125 days”. The “allograft survival relative to CTLA4-Ig alone” value ([2]; CCR4 deficiency plus CTLA4-Ig versus CTLA4-Ig alone) was “over 3 times”, the “airway allograft state (rejection/histology)” value ([2]; CCR4−/− recipients, day 42) was “virtually normal airways with intact ciliated epithelium and no fibro-obliteration” and the “airway allograft state (rejection/histology)” value ([2]; CCR4−/− recipients, day 126) was “virtually normal airways with intact ciliated epithelium and no fibro-obliteration; also recorded: virtually normal airway allografts”. The “airway allograft state (rejection/histology)” value ([2]; CCR4−/− recipients, days 42 and 126) was “virtually normal”.

Entries after “also recorded” stand apart in the source; their conditions may differ.
